Results: patent US10570121B2, “Substituted dihydroisoquinolinone compounds” (priority 2014, dated 2020)

The chains behind the UniProt entries cited, without tags or fusion partners. Where a name states a change or a piece, a line headed by the entry shows the natural chain unless it says otherwise.
UniProt Q15910, whole entry: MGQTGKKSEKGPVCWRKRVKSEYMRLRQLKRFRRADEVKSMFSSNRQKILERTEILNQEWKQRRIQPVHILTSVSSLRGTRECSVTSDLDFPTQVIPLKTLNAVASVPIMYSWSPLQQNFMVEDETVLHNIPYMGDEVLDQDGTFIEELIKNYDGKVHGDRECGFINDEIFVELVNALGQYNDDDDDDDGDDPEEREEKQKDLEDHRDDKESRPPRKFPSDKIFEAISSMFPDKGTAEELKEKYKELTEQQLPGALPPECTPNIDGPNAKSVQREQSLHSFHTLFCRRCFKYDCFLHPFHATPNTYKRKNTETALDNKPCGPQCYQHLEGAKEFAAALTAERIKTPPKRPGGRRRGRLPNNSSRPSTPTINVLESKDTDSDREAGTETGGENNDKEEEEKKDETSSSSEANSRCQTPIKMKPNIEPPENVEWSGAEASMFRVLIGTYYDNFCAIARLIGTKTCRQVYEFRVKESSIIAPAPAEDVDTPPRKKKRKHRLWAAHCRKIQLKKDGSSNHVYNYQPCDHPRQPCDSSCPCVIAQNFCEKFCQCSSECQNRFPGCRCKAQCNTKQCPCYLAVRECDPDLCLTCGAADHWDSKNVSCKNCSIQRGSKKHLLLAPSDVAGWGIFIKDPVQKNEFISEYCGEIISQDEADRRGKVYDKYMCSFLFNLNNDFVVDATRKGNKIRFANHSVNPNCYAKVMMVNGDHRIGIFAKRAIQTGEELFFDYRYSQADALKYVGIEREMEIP
UniProt Q15910, whole entry Y641N: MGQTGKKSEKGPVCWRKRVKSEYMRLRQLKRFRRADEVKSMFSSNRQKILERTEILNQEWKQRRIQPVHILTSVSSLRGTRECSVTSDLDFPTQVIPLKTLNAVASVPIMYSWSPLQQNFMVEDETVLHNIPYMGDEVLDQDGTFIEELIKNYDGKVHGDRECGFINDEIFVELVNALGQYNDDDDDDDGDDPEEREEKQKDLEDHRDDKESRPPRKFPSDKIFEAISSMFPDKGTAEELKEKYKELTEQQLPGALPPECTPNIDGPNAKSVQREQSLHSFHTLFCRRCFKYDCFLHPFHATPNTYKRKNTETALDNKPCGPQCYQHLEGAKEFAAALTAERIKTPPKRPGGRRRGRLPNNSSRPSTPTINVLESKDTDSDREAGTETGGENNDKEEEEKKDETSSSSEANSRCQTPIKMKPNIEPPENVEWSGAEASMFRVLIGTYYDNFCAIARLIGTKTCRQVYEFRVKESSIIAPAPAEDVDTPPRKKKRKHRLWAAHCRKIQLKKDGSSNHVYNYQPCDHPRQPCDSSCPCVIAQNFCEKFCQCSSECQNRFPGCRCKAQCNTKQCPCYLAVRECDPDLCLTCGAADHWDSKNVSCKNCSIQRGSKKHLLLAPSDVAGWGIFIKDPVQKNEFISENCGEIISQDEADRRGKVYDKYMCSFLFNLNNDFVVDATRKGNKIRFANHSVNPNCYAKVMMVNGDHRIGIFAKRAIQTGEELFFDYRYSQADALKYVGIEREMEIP

Key:
WT EZH2 = WT EZH2 (Homo sapiens (Human), UniProt Q15910); experiment: WT EZH2 nucleosome assay (10X SAM, high SAM conditions); type: biochemical; details: read-out: WT EZH2 Nucleosome assay (10X SAM) Ki, 15 uM SAM, Ki app from competitive inhibition fit
EZH2 Mutant Y641N = EZH2 Mutant Y641N (Homo sapiens (Human), UniProt Q15910, Y641N); experiment: EZH2 Mutant Y641N nucleosome assay; type: biochemical; details: read-out: EZH2 Mutant Y641N Nucleosome assay IC50; PRC2 4-protein complex 6 nM, 1.5 μM SAM, HeLa oligonucleosomes

## Cc1cc(OC(F)F)c(CN2CCc3c(Cl)cc(C(CO)C4CCOCC4)c(Cl)c3C2=O)c(=O)[nH]1 (single isomer, unassigned)
WT EZH2
  Ki: 162 nM
EZH2 Mutant Y641N
  IC50: 843 nM
